Data published in patent US20240190860A1, “8-CYCLO-SUBSTITUTED QUINAZOLINE DERIVATIVES AS LPA RECEPTOR 2 INHIBITORS” (CHIESI FARMACEUTICI S.p.A., priority 2021, published 2024).

The chains behind the UniProt entries cited, without tags or fusion partners.
UniProt Q9HBW0, whole entry: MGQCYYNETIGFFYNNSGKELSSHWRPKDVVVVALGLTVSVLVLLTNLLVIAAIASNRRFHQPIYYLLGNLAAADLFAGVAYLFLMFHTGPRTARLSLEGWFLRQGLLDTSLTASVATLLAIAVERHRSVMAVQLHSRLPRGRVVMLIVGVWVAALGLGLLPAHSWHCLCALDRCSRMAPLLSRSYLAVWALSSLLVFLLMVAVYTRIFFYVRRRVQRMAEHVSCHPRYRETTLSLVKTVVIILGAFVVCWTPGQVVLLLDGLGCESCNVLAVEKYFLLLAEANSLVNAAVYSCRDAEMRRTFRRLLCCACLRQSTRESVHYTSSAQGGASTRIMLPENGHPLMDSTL

Biological target: T1, human recombinant LPA2 expressed in CHO cells (Homo sapiens, UniProt Q9HBW0)
T1 construct: expressed in transfected cells; host or cells: CHO cells (CHO-hLPA2 cell line)
Assay: FLIPR calcium mobilization assay, LPA2 antagonism in CHO-hLPA2 cells
Format: cell-based
Conditions: inhibition of LPA EC80 Ca2+ response, 30 min pre-incubation
Experimental: The effectiveness of compounds of the present invention as LPA2 antagonist can be determined at the human recombinant LPA2 expressed in CHO cells, using a FLIPR assay in 384 well format.
CHO-hLPA2 cell lines are cultured in a humidified incubator at 5% C02 in DMEM/F-12 (1:1) MIXTURE with 2 mM Glutamax, supplemented with 10% of Foetal Bovine Serum, 1 mM Sodium Pyruvate, 11 mM Hepes and 1× Penicillin/Streptomycin. CHO hLPA2 cells are seeded into black walled clear-bottom 384-well plates (#781091, Greiner Bio-One GmbH) at a density of 7,500 cells per well in 50 μl culture media and grown overnight in a 37° C. humidified CO2-incubator. Serial dilutions (1:3 or 1:4, 11 points CRC) of compounds are performed in 100% DMSO at 200× the final concentration. […] The loaded cell plates are transferred into the FLIPR instrument and calcium responses are monitored during the on-line addition protocols. […] Intracellular peak fluorescence values subtracted by baseline fluorescence are exported and analysed to determine IC50 values, respectively. The calcium response is expressed as percentage of the maximal inhibition of the EC80 agonist response.
The raw data (peak height expressed as relative fluorescence units) are normalized and transformed into “percent of inhibition”. […]

- IC50: < 10 nM
SMILES: COC(=O)Nc1nc(C)c(S(=O)(=O)N2CCN(C[C@H](C)Nc3ncnc4c(-c5ccc(CN6CCCC6)cc5)cccc34)CC2)s1 [Example 23, methyl N-[4-methyl-5-({4-[(2S)-2-[(8-{4-[(pyrrolidin-1-yl)methyl]phenyl}quinazolin-4-yl)amino]propyl]piperazin-1-yl}sulfonyl)-1,3-thiazol-2-yl]carbamate]
